“And” between values parts separate entries of the source, which are not always exact repeats. Identical values can stand only once. “Also recorded” adds a separate entry of the source. Like-named read-outs stand apart in the source and are kept apart here.
How the values were obtained:
[1] = human, in vivo
[2] = Adverse effects questionnaire after buprenorphine in healthy subjects; format: in vivo, human
[3] = rifampicin 600 mg daily for 15 days; stable high-dose sublingual buprenorphine/naloxone, opioid-dependent subjects; ref McCance‐Katz et al. 2011; cited from earlier work
[4] = cited from earlier work
[5] = human, in vivo, iv
[6] = ref Brewster et al. 1981, Cone et al. 1984

What does the source list for buprenorphine?
AUC0-18 [1]: 1.64 ± 0.74 ng·h/mL and 1.36 ± 0.87 ng·h/mL; Ae, amount excreted into urine within 18 h (free unconjugated) [1]: 0.21 ± 0.20 µg and 0.17 ± 0.20 µg; C max [1]: 0.36 ± 0.15 ng/mL and 0.30 ± 0.17 ng/mL; Decrease of mean AUC0–18 by rifampicin [1]: 25%; Adverse effects ([2]; all subjects, sublingual 0.6/0.8 mg and intravenous 0.4 mg): mild‐to‐moderate adverse effects; Subjects needing medication (cetirizine hydrochloride) for itch or urticaria ([2]; intravenous part, 12 subjects): Eight; Decrease in the mean AUC by rifampicin [3]: 70%; Excreted in bile (as metabolites) [4, 6]: 80–90%; Excreted in urine (mainly as metabolites) [4, 6]: 10–30%; Time to peak plasma concentrations ([4]; sublingual, ref Bullingham et al. 1981, McAleer et al. 2003, Ciraulo et al. 2006): 1 to 3 h; Bioavailability ([4]; sublingual, ref Bullingham et al. 1982, Kuhlman et al. 1996, Mendelson et al. 1997, Nath et al. 1999, Cowan et al. 2005): 30–55%; AUC0–18 [5]: 5.32 ± 3.18 ng·h/mL and 4.53 ± 1.64 ng·h/mL; Ae, amount excreted into urine within 18 h (free unconjugated) [5]: 1.5 ± 0.7 µg and 2.7 ± 2.3 µg; Effect of rifampicin on plasma concentrations [5]: not influenced; also recorded: no statistically significant differences
